Values of other authors, collected in PMC2630426 (Journal of medicinal chemistry, 2008).

Molecular target: δ opioid receptor (Rattus norvegicus, UniProt P33533)
Details: read-out: IC50^δ; somatostatin-derived μ opioid antagonist; cited from earlier work

Substance: H-D-Phe-c[Cys-Tyr-D-Trp-Orn-Thr-Pen]-Thr-NH2 (disulfide) [CTOP]
- IC50: 13.5 µM
